Reference: article PMC3853373 (Archives of biochemistry and biophysics, 2013)

How the values were obtained:
human PNMT (hPNMT) [1] = target: T1, human PNMT (hPNMT) (Homo sapiens, UniProt P11086); experiment: Isothermal titration calorimetry of ligand binding to hPNMT; conditions: Kd (varied ligand), ITC, pH 8.0
T1 sequence (P11086 1-282): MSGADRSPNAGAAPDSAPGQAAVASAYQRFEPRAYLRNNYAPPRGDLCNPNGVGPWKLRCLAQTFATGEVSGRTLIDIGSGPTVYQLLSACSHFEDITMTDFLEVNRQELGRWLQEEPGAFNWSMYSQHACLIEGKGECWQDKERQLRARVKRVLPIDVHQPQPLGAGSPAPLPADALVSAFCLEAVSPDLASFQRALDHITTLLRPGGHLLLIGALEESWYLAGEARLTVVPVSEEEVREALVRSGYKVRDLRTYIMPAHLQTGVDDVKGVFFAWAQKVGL

human PNMT (hPNMT) [2] = target: T1, human PNMT (hPNMT); experiment: Determination of inhibition constants and inhibition patterns for hPNMT; format: biochemical; conditions: Kis, pH 8.0, 30 °C

SMILES: CNC[C@H](O)c1ccc(O)c(O)c1 [Epinephrine, epinephrine]
- Kd (human PNMT (hPNMT) [1]; fixed ligand AdoHcy): 4.1 ± 0.7 µM
- Kd (human PNMT (hPNMT) [1]; fixed ligand AdoMet): 23 ± 2.5 µM
- Ki (human PNMT (hPNMT) [2]; varied substrate AdoMet, fixed PEA 100 μM): 71 ± 9.5 µM
- Ki (human PNMT (hPNMT) [2]; varied substrate PEA, fixed AdoMet 5 μM): 20 ± 0.2 µM
